Test results from ChEMBL document CHEMBL5725596, “Substituted imidazoles as casein kinase 1 D/E inhibitors” (2017).

The chains behind the UniProt entries cited, without tags or fusion partners. Where a name states a change or a piece, a line headed by the entry shows the natural chain unless it says otherwise.
UniProt P48730: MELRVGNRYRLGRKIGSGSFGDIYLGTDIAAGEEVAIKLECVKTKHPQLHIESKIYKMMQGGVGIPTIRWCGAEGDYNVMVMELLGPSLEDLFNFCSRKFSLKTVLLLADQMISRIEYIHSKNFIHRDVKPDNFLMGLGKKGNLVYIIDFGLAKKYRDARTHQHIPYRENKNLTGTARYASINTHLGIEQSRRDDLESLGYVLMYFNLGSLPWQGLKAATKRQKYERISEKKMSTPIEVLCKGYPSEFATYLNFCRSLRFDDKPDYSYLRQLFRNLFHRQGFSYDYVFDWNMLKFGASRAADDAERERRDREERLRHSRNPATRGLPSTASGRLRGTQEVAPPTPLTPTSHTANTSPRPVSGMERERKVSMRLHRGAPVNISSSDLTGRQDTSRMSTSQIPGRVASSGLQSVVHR

Target: Casein kinase I isoform delta (Homo sapiens, UniProt P48730)
Experiment: Kinase Assay: The kinase assay was performed in V-bottom 384-well plates. […] The reaction was incubated at room temperature for 22 hours and terminated by adding 45 μl of 35 mM EDTA to each sample. The reaction mixture was analyzed on the Caliper LABCHIP®3000 (Caliper, Hopkinton, Mass.) by electrophoretic separation of the unphosphorylated substrate and phosphorylated product. […] Compounds were dissolved at 10 mM in dimethylsulfoxide (DMSO) and evaluated at eleven concentrations.

SMILES: O=C(Nc1cn2nc(-c3c(-c4ccc(F)cc4)ncn3C3CCN(C[C@H](O)C(F)(F)F)CC3)ccc2n1)c1ccncc1
- IC50: 0.195 nM
